From patent publication US20250382286A1, “CO-CRYSTAL OF AFICAMTEN, AND PREPARATION METHOD THEREFOR AND USE THEREOF” (CRYSTAL PHARMACEUTICAL (SUZHOU) CO., LTD., priority 2023, published 2025)

Legend:
[1] = Kinetic solubility in FaSSGF, FaSSIF, FeSSIF and water; assay type: physicochemical; conditions: 37° C., 1 h
[2] = Flowability (compressibility / Carr index by tap density tester); assay type: physicochemical; conditions: tapped 1250 times; smaller index = better flowability
Experimental: Approximately 400 mg of sample was weighed into a 5-mL graduated cylinder, and the volume before tapped (Vo) was recorded. Then the sample was tapped for 1250 times by ZS-2E tap density tester and the volume after tapped (Vt) was recorded. The compressibility index (c) was calculated using the formula: c=(V0−Vf)/V0*100%. A smaller compressibility index indicates better flowability. The results are shown in Table 5 and indicate that Form CSI has better flowability.

| Compound | Solubility (concentration of Compound I in solution) ([1]; FaSSGF) [µg/mL] | Solubility (concentration of Compound I in solution) ([1]; FaSSIF) [µg/mL] | Solubility (concentration of Compound I in solution) ([1]; FeSSIF) [µg/mL] | Solubility (concentration of Compound I in solution) ([1]; Water) [µg/mL] | Carr index (compressibility index) [2] [%] |
| --- | --- | --- | --- | --- | --- |
| CCc1nc(-c2ccc3c(c2)CC[C@H]3NC(=O)c2cnn(C)c2)no1.CCc1nc(-c2ccc3c(c2)CC[C@H]3NC(=O)c2cnn(C)c2)no1.O=C(O)C(O)C(O)C(=O)O [Form CSI] | 35.1 | 42.3 | 163.4 | 45.1 | 21.8 |
| CCc1nc(-c2ccc3c(c2)CC[C@H]3NC(=O)c2cnn(C)c2)no1 [Form IV, reference compound] | 29.9 | 31.9 | 103.3 | 33.8 | 25.0 |
